Experiment [1] deals with T1, Histamine H3 receptor (Homo sapiens, UniProt Q9Y5N1). The experiment is described as follows: Histamine H3 receptor competition binding using [3H]Na-methylhistamine. The essentials:
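Homogenates of SK-N-MC cells stably expressing human H3 receptor, in 50 mM Na2HPO4 pH 7.4, incubated 1 h at 37 °C with 1.0 nM [3H]Nα-methylhistamine with or without competitor. Filtration through GF/C filters pretreated with 0.3% polyethylenimine, three washes with ice-cold 25 mM Tris-HCl, 145 mM NaCl pH 7.4, then scintillation counting.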

Amino acid sequences for entries named in this document (tags omitted). A change or cut given only in a name is not applied to a line headed by its entry.
UniProt Q9Y5N1: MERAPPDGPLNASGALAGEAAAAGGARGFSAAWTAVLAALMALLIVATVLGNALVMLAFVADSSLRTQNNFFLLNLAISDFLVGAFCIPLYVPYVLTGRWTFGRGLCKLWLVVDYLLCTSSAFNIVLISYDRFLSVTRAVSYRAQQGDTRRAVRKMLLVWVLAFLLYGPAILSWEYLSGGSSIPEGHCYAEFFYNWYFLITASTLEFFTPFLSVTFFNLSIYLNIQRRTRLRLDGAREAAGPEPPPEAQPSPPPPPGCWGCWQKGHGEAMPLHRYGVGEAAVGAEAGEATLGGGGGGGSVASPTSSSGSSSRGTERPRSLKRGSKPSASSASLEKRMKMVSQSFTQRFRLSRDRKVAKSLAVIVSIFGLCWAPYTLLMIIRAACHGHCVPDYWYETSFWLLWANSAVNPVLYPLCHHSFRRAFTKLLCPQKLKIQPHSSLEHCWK

The target of experiment [2] is T1, Histamine H3 receptor. As to the kind of experiment: Inhibition of the forskolin-stimulated cAMP production in SK-N-MC cells expressing human Histamine H3 receptor. Type of experiment: functional, cell-based.

pEC50, pKi: −log10 of the molar value. A value given as a limit tells only on which side of the number the result lay.

Molecule `C/N=C(\NC#N)NC[C@H]1CC[C@@H](c2c[nH]cn2)O1` (single isomer, unassigned) showed a pKi in experiment [1] of 5.09.

As to `C/N=C(\NC#N)NC[C@@H]1CC[C@H](c2c[nH]cn2)O1` (single isomer, unassigned), the negative-log Ki (pKi) in experiment [1] is 5.15. The pEC50 in experiment [2] was 4.99. The like results for `C/N=C(\NC#N)NC[C@H]1CC[C@H](c2c[nH]cn2)O1` were, in that order, 5.66 and 5.50. In turn, `C/N=C(\NC#N)NC[C@@H]1CC[C@@H](c2c[nH]cn2)O1` gave a pKi in experiment [1] of 4.73. In experiment [2], this molecule showed a pEC50 of less than 4.00.

These data come from ChEMBL document CHEMBL1145842, “A selective human H(4)-receptor agonist: (-)-2-cyano-1-methyl-3-[(2R,5R)-5- [1H-imidazol-4(5)-yl]tetrahydrofuran-2-y] methylguanidine” (J Med Chem, 2003).
